Results from US9777012B2, “Substituted furo[2,3-d]pyrimidines as multi-targeted receptor tyrosine kinase inhibitors and microtubule targeting antitumor agents” (Duquesne University of the Holy Spirit, priority 2014, dated 2017).

Sequences of proteins named here, by UniProt entry; tags and fusion partners are left off. Residues count along the entry.
UniProt P35968, 20-1356: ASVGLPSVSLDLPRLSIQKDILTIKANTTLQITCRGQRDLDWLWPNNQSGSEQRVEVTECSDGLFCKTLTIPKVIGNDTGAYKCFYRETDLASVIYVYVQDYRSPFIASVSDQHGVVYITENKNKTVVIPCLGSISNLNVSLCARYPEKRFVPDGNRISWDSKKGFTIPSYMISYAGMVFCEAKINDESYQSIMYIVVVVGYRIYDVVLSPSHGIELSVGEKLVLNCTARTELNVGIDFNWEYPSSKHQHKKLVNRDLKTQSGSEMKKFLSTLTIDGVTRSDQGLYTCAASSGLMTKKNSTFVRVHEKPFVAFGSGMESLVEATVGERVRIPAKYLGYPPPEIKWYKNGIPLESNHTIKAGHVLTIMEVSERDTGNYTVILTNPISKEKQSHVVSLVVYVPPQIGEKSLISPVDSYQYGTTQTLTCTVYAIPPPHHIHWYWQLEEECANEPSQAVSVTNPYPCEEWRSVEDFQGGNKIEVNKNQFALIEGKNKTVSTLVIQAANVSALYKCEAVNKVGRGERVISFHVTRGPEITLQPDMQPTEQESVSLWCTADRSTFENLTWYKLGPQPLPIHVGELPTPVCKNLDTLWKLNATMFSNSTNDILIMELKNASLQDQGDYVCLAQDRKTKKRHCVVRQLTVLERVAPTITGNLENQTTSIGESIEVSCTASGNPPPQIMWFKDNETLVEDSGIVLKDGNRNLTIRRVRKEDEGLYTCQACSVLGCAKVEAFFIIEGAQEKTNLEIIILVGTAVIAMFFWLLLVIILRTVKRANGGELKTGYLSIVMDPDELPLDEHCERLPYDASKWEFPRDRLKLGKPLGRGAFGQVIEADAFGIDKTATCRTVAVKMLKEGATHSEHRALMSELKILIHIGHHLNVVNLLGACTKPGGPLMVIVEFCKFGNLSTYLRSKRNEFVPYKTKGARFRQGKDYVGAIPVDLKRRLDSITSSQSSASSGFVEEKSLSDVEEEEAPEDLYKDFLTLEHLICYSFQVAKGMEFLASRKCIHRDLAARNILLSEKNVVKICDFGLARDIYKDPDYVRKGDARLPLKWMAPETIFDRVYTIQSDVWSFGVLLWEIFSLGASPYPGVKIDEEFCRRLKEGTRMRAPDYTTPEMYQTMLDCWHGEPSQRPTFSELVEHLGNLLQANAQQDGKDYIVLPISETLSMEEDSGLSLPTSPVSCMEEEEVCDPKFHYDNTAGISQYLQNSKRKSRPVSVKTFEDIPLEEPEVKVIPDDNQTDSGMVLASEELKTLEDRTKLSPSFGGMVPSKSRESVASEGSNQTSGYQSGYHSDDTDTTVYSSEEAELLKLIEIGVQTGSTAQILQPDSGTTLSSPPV

Key:
[1] = tested on: M6/6 cells; experiment: SRB antiproliferative assay, M6/6 (SK-OV-3 expressing Pgp); settings: Homo sapiens, SK-OV-3, 48 h, read-out: IC50 ± SD in M6/6 cells
[2] = biological target: T1, VEGFR-2 (Homo sapiens, UniProt P35968); experiment: Phosphotyrosine ELISA cytoblot, VEGFR-2 (U251 cells); format: cell-based; settings: VEGF stimulation, read-out: VEGFR-2 kinase inhibition
T1 construct: tumor cell lines naturally expressing high levels of EGFR (A431), VEGFR-2 (U251); endogenous in cells; host or cells: U251

| SMILES | IC50 [1] | IC50 [2] |
| --- | --- | --- |
| CC(=O)O[C@H]1C(=O)[C@@]2(C)[C@H]([C@H](OC(=O)c3ccccc3)[C@]3(O)C[C@H](OC(=O)[C@H](O)[C@@H](NC(=O)c4ccccc4)c4ccccc4)C(C)=C1C3(C)C)[C@]1(OC(C)=O)CO[C@@H]1C[C@@H]2O [Paclitaxel, reference compound] | 1190 nM | – |
| COc1ccc2c(ccn2-c2nc(C)nc3oc(C)cc23)c1 [Compound 9, 4-(5-methoxy-1H-indol-1-yl)-2,6-dimethylfuro[2,3-d]pyrimidine] | – | > 300 nM |
